Test results from US20070155803A1, “Protease inhibitors” (ProZymex A/S, priority 2003, published 2007).

Sequences of proteins named here, by UniProt entry; tags and fusion partners are left off. Residues count along the entry.
UniProt P53634, 395-463 limits assumed: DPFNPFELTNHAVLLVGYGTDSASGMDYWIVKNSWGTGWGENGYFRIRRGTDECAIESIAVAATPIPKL
UniProt P53634, 25-143 limits assumed: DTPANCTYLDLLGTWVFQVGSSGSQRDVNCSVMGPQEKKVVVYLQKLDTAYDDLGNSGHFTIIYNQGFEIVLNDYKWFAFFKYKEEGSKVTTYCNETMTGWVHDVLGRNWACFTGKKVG
UniProt P53634, 231-394 limits assumed: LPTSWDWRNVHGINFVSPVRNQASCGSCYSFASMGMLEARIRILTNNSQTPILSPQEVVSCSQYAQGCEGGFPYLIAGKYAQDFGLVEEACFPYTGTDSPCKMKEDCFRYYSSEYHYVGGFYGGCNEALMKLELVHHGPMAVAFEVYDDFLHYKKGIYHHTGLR

Target: T1, Human DPP-I (Homo sapiens, UniProt P53634)
T1 construct: purchased UniZyme A/S
Experiment: Human Dipeptidyl Peptidase I (DPP-I) assay, AFC substrate
Assay type: biochemical
Method: Human Dipeptidyl Peptidase I (DPP-I) Assay
Using this assay, the IC50 value of a compound of the invention as a DPP-I inhibitor was determined using an AFC substrate.
100 mM sodium phosphate (8.9 g Na2HPO4; M=177.99), 150 mM KCl (5.6 g KCl; M=74.6) and 1.5 mM EDTA (279 mg EDTA; M=372.2) was dissolved in 500 mL H2O, and pH was adjusted to 6.0. Cysteine*HCl (Sigma C-1276; M=157.6), 1 mg/mL assay buffer, corresponding to 6 mM, was added to the solution for activation of the DPP-I enzyme.
Gly-Phe-AFC*TFA (Enzyme Systems Products AFC-033) was used as the substrate for determination of IC50 values. Km was 270 μM. The substrate was solubilized in DMSO to give a 7.5 mM stock solution (2.2 mg of substrate was added to 0.5 mL DMSO).
Human DPP-I (hDDP-I; obtained from UniZyme A/S, DK-2970 Horsholm, Denmark) was stored at −20° C. in a buffer containing 2.5 mM Na-phosphate, 150 mM NaCl, 2 mM cysteamine, 50% glycerol, pH 7.0 at a concentration of 2.5 mg/mL. This stock solution was diluted 200 times in the assay buffer.
Th assay was performed in 96-well plates. […] The excitation wavelength was 400 nm, and the emission was measured at 505 nm for 10 minutes at 37° C. […] In the software (SOFTmax Pro) used for data collection from the fluorometer (Molecular Devices: Gemini XS), it was erisured that the measured slopes were linear (R^2>0.99). […]

**Q.** `CC[C@H](N)C(=O)NNC(=O)N[C@@H](CCc1ccccc1)C(=O)N[C@@H](Cc1cccc(F)c1)C(N)=O` [Example 11, 1-(2S-2-Aminobutanoyl)-4-[2S-N-[2S-3-(m-fluorophenyl)propan-2-yl-amide]-4-phenylbutan-2-yl-amide]semicarbazide] was tested. Which “Selective inhibition of DPP-I (in words)” value did it give?
**A.** selectively inhibit DPP-I
